From article PMC5161041 (Journal of medicinal chemistry, 2016)

Sequences of proteins named here, by UniProt entry; tags and fusion partners are left off. Residues count along the entry.
UniProt Q63380, 1-617: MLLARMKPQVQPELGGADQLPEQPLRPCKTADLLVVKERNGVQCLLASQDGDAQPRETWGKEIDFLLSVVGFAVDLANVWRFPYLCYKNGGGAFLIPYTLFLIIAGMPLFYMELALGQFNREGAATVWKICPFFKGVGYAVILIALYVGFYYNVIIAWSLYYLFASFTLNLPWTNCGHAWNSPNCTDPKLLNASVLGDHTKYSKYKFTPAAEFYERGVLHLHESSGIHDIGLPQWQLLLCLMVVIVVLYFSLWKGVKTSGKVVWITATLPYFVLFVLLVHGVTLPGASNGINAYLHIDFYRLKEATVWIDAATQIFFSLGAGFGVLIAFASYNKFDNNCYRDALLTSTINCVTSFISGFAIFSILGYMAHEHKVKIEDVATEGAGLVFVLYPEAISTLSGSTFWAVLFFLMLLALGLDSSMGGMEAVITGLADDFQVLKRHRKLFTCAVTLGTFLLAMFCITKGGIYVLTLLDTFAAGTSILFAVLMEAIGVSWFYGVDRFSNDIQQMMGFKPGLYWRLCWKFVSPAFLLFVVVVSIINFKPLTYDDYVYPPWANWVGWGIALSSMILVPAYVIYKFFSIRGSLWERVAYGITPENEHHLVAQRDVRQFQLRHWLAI

Biological target: NET (Rattus norvegicus, UniProt Q63380)
Assay: NET binding assay, [3H]nisoxetine, rat frontal cortex membranes
Conditions: read-out: Ki NET (class IA)

## NC(=O)C[S+]([O-])C(c1ccccc1)c1ccccc1 (stereo not shown) [Compound 2, 2-[(diphenylmethyl)sulfinyl]acetamide, reference compound]
  inhibition at 100 µM: < 50%
